Patent US10202345B2, “Substituted azaspiro(4.5)decane derivatives” (priority 2014, dated 2019)

The chains behind the UniProt entries cited, without tags or fusion partners. Where a name states a change or a piece, a line headed by the entry shows the natural chain unless it says otherwise.
UniProt P41146: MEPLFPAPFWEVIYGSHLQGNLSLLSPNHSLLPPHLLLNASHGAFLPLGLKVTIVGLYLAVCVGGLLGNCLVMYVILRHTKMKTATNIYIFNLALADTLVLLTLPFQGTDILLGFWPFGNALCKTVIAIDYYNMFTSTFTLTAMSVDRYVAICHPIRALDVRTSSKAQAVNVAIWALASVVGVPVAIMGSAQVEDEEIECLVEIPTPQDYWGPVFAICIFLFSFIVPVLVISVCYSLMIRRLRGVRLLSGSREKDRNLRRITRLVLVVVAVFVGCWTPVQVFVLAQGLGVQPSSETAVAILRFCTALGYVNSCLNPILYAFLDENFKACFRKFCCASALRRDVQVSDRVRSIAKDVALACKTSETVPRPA
UniProt P35372, whole entry, looked up: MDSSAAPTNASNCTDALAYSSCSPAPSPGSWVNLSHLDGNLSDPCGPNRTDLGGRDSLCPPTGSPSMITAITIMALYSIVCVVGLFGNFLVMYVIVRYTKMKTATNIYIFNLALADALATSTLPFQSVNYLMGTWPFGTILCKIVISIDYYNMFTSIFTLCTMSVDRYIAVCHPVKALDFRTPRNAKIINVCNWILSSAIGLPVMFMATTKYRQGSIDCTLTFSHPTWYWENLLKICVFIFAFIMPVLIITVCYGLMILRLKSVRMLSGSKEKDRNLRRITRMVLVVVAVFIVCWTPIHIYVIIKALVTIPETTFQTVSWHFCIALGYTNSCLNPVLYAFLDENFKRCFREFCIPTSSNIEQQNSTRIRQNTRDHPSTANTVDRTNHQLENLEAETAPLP

Experiments:
ORL1 receptor = ORL1 receptor (Homo sapiens, UniProt P41146); test: ORL1 receptor binding assay with 3H-nociceptin/orphanin FQ (WGA-SPA beads); details: for Ki: read-out: Ki (ORL1) mean, mean; for % inhibition (ORL1) [1 μM]: test concentration 1 μM
human μ opiate receptor = human μ opiate receptor (Homo sapiens, UniProt P35372); test: μ opiate receptor binding assay with [3H]-naloxone (WGA-SPA beads); details: for Ki: read-out: Ki (μ) mean [μm], mean; for % inhibition (μ) [1 μM]: test concentration 1 μM

Row | Compound | Ki (ORL1 receptor) | % inhibition (ORL1) [1 μM] (ORL1 receptor) | Ki (human μ opiate receptor) | % inhibition (μ) [1 μM] (human μ opiate receptor) | % inhibition (ORL1) [1 μM] (ORL1 receptor; 1 µM) | % inhibition (μ) [1 μM] (human μ opiate receptor; 1 µM)
1 | CN(C)C1(c2ccccc2)CCC2(CCN(CC3(O)CCC3)C2)CC1 (stereo not drawn) | 9.7 nM | 89% | 6.1 nM | 97% | – | –
2 | CN(C)C1(c2ccccc2)CCC2(CCN(C(=O)C3(C#N)CC3)C2)CC1 (stereo not drawn) | 102 nM | 48.5% | 84 nM | 87% | – | –
3 | CN(C)C1(c2ccccc2)CCC2(CCN(C(=O)CCC3(C#N)CC3)C2)CC1 (stereo not drawn) | 0.73 nM | 96% | 1.06 nM | 99% | – | –
4 | CCOCCN1CC2(CCC(c3cccs3)(N(C)C)CC2)CC1=O (stereo not drawn) | 3.45 nM | 92.5% | 4.15 nM | 99.5% | – | –
5 | CN(C)C1(c2ccccc2)CCC2(CCN(CCC(C)(C)O)C2)CC1 (stereo not drawn) | 7.05 nM | 91% | 7.45 nM | 95.5% | – | –
6 | COC(C)(C)C(=O)N1CCC2(CCC(c3ccccc3)(N(C)C)CC2)C1 (stereo not drawn) | 180 nM | 57% | 49 nM | 85.5% | – | –
7 | CCCCN1CCC2(CCC(c3cccs3)(N(C)C)CC2)C1=O (stereo not drawn) | 600 nM | 28% | 170 nM | 65% | – | –
8 | CCCC(=O)N1CCC2(CCC(c3cccs3)(N3CCC3)CC2)C1 (stereo not drawn) | 910 nM | 21.5% | 640 nM | 54% | – | –
9 | CCCCN1CCC2(CCC(C3CCCC3)(N(C)C)CC2)C1 (stereo not drawn) | 19 nM | 85% | 9.6 nM | 99.5% | – | –
10 | CN(C)C1(c2ccccc2)CCC2(CC1)CC(=O)N(CC(C)(C)C#N)C2 (stereo not drawn) | 5 nM | 91% | 5 nM | 96.5% | – | –
11 | CN(C)C1(c2ccccc2)CCC2(CCNC2)CC1 (stereo not drawn) | 57 nM | 62.5% | 215 nM | 65.5% | – | –
12 | COCC1(C(=O)N2CCC3(CCC(c4ccc(C)s4)(N(C)C)CC3)C2)CC1 (stereo not drawn) | 355 nM | 23.5% | 37 nM | 92% | – | –
13 | CN(C)C1(c2ccccc2)CCC2(CCN(C(=O)C3(O)CCC3)C2)CC1 (stereo not drawn) | 21.5 nM | 81% | 13.4 nM | 95.5% | – | –
14 | Cc1ccc(C2(N(C)C)CCC3(CCNC3=O)CC2)s1 (stereo not drawn) | – | 16.5% | 4040 nM | 32% | – | –
15 | COC(C)(C)C(=O)N1CCC2(CCC(C3CCCC3)(N(C)C)CC2)C1 (stereo not drawn) | 910 nM | 26% | 55 nM | 90% | – | –
16 | CCCCC1(N(C)C)CCC2(CCN(C(=O)CC3(OC)CCC3)C2)CC1 (stereo not drawn) | 30 nM | 76% | 8.25 nM | 97.33% | – | –
17 | COCC1(C(=O)N2CCC3(CCC(c4cccs4)(N(C)C)CC3)C2)CC1 (stereo not drawn) | 86.5 nM | 78.5% | 13.5 nM | 96% | – | –
18 | CN(C)C1(c2cccs2)CCC2(CCN(CCC3CC3)C2)CC1 (stereo not drawn) | 1.45 nM | 98% | 1.5 nM | 99% | – | –
19 | CN(C)C1(C2CCCC2)CCC2(CCN(C(=O)C3CC3)C2)CC1 (stereo not drawn) | 185 nM | 45% | 52 nM | 86.5% | – | –
20 | CN(C)C1(c2ccccc2)CCC2(CCN(CCC(C)(C)C#N)C2)CC1 (stereo not drawn) | 11.7 nM | 88% | 2 nM | 99% | – | –
21 | COCC(C)(C)C(=O)N1CCC2(CCC(c3ccc(C)s3)(N(C)C)CC2)C1 (stereo not drawn) | 48 nM | 57.5% | 2.25 nM | 98.5% | – | –
22 | COCC1(C(=O)N2CCC3(CCC(c4ccccc4)(N(C)C)CC3)C2)CC1 (stereo not drawn) | 105 nM | 58% | 45 nM | 93.5% | – | –
23 | COC(C)(C)CN1CCC2(CCC(c3ccccc3)(N(C)C)CC2)C1 (stereo not drawn) | 12.5 nM | 88.5% | 5.4 nM | 98% | – | –
24 | CCCCN1CCC2(CCC(Cc3ccccc3)(N(C)C)CC2)C1 (stereo not drawn) | 170 nM | 92.5% | 4.5 nM | 7.4% | – | –
25 | CCOC(C)CC(=O)N1CCC2(CCC(c3cccs3)(N(C)C)CC2)C1 (stereo not drawn) | 4.6 nM | 93% | 1 nM | 101% | – | –
26 | CN(C)C1(C2CCCC2)CCC2(CCN(C(=O)C3CCC3)C2)CC1 (stereo not drawn) | 28 nM | 67.5% | 5.2 nM | 97% | – | –
27 | Cc1ccc(C2(N(C)C)CCC3(CCN(C(=O)C4CCC4)C3)CC2)s1 (stereo not drawn) | 23 nM | 73.5% | 8.05 nM | 98.5% | – | –

Row | Compound | Ki (ORL1 receptor) | % inhibition (ORL1) [1 μM] (ORL1 receptor) | Ki (human μ opiate receptor) | % inhibition (μ) [1 μM] (human μ opiate receptor) | % inhibition (ORL1) [1 μM] (ORL1 receptor; 1 µM) | % inhibition (μ) [1 μM] (human μ opiate receptor; 1 µM)
28 | CN(C)C1(c2cccs2)CCC2(CCN(CC3CCCC3)C2)CC1 (stereo not drawn) | 0.8 nM | 94% | 1.14 nM | 98.5% | – | –
29 | CN(C)C1(c2ccccc2)CCC2(CC1)CC(=O)N(CC(C)(C)O)C2 (stereo not drawn) | 10.2 nM | 77% | 44 nM | 91.5% | – | –
30 | CN(C)C1(c2ccccc2)CCC2(CCN(CC(C)(C)O)C2)CC1 (stereo not drawn) | 25 nM | 66% | 44.5 nM | 87% | – | –
31 | CN(C)C1(c2ccccc2)CCC2(CCN(CC3(O)CC3)C2)CC1 (stereo not drawn) | 35 nM | 79% | 25.5 nM | 92% | – | –
32 | CN(C)C1(c2cccs2)CCC2(CCN(C(=O)CC3CC3)C2)CC1 (stereo not drawn) | – | 94% | – | 99.5% | – | –
33 | CCCCC1(N(C)C)CCC2(CCN(C(=O)CC3CCOC3)C2)CC1 (stereo not drawn) | 405 nM | 20.5% | 51 nM | 90% | – | –
34 | COCC1(C(=O)N2CCC3(CCC(c4ccccc4)(N(C)C)CC3)C2)CCC1 (stereo not drawn) | 27.5 nM | 74% | 19.5 nM | 96% | – | –
35 | CN(C)C1(c2ccccc2)CCC2(CC1)CC(=O)N(CCC1CC1)C2 (stereo not drawn) | 235 nM | 37.5% | 2060 nM | 70% | – | –
36 | CN(C)C1(c2cccs2)CCC2(CCN(CC3CC3)C2)CC1 (stereo not drawn) | 14.5 nM | 92.33% | 8.95 nM | 98.5% | – | –
37 | CCCCN1CCC2(CCC(CC3CCCC3)(N(C)C)CC2)C1 (stereo not drawn) | 275 nM | 57.5% | 6.8 nM | 103% | – | –
38 | 8-Butyl-8-dimethylamino-8-phenyl-3-azaspiro[4.5]decan-4-one | – | 10% | – | 0% | – | –
39 | CN(C)C1(c2ccccc2)CCC2(CCN(C(=O)CC3CCOC3)C2)CC1 (stereo not drawn) | 2.6 nM | 91.5% | 2.6 nM | 98% | – | –
40 | COC1(C(=O)N2CCC3(CCC(c4cccs4)(N(C)C)CC3)C2)CC1 (stereo not drawn) | 85.5 nM | 65% | 23.5 nM | 91.5% | – | –
41 | (8-Benzyl-3-butyl-3-azaspiro[4.5]decan-8-yl)-dimethylamine [10] | 2020 nM | – | 410 nM | – | 27.67% | 67%
42 | COC1(CN2CCC3(CCC(c4cccs4)(N(C)C)CC3)C2)CC1 (stereo not drawn) | 3.9 nM | 94% | 3.9 nM | 98.5% | – | –
43 | CN(C)C1(c2cccs2)CCC2(CCN(C(=O)C(C)(C)O)C2)CC1 (stereo not drawn) | 82 nM | 55% | 52 nM | 90.5% | – | –
44 | CN(C)C1(c2ccccc2)CCC2(CCN(CC3CCOC3)C2)CC1 (stereo not drawn) | 19.5 nM | 92.5% | 7.65 nM | 95.5% | – | –
45 | CN(C)C1(C2CCCC2)CCC2(CC1)CC(=O)N(C1CCCC1)C2 (stereo not drawn) | 20 nM | 88% | 1.3 nM | 99.5% | – | –
46 | CN(C)C1(c2ccccc2)CCC2(CCN(CCCC3CC3)C2)CC1 (stereo not drawn) | 0.63 nM | 95% | 1.45 nM | 98% | – | –
47 | CCCC(=O)N1CCC2(CCC(c3ccccc3)(N3CCC3)CC2)C1 (stereo not drawn) | 1520 nM | 24.5% | 1210 nM | 43.5% | – | –
48 | Cc1ccc(C2(N(C)C)CCC3(CCN(C(=O)C4CC4)C3)CC2)s1 (stereo not drawn) | 260 nM | 34.5% | 77 nM | 86.5% | – | –
49 | CN(C)C1(c2cccs2)CCC2(CCN(C(=O)CCC(C)(C)O)C2)CC1 (stereo not drawn) | 16.5 nM | 89.5% | 3.05 nM | 99.5% | – | –
50 | CNC1(c2ccccc2)CCC2(CC1)CC(=O)N(CCC1CCC1)C2 (stereo not drawn) | 7.6 nM | 91% | 1.65 nM | 100% | – | –
51 | CN(C)C1(Cc2ccccc2)CCC2(CCN(CC3CCCC3)C2)CC1 (stereo not drawn) | 120 nM | 74.33% | 7.9 nM | 100.5% | – | –
52 | CN(C)C1(c2ccccc2)CCC2(CC1)CC(=O)N(CCC1CCOCC1)C2 (stereo not drawn) | 13 nM | 94% | 4.7 nM | 98.5% | – | –
53 | CNC1(c2cccs2)CCC2(CCN(C(=O)CCOC)C2)CC1 (stereo not drawn) | 120 nM | 44.5% | 38.5 nM | 92% | – | –
54 | COCC1(C(=O)N2CCC3(CCC(c4ccc(F)s4)(N(C)C)CC3)C2)CCC1 (stereo not drawn) | 135 nM | – | 9.9 nM | 94.5% | – | –
